Experiments:
[1] = test system: TOV112D (p53-R175H); assay: Cell growth inhibition assay / cell-based TOV112D activity; set-up: species or system human; conditions: three day assay, FIG. 1
[2] = test system: TOV112D (ovarian cancer, p53-R175H) cells; assay: Intracellular [Zn2+]free imaging with FluoZin-3-AM, TOV112D; type: cell-based, human

Compound	cell growth inhibition (killing) of p53-R175H tumor cell line [1]	steady-state intracellular [Zn2+]free ([2]; 1 μM ZMC1 and 0.5 μM ZnCl2 in EBSS/H (−)Ca/Mg)	increase of intracellular [Zn2+]free, compound alone ([2]; EBSS/H (−)Ca/Mg, ZMC1 alone without ZnCl2)	increase of intracellular [Zn2+]free, with ZnCl2 ([2]; EBSS/H (−)Ca/Mg, ZMC1 and ZnCl2, two ZnCl2 concentrations)
C/C(=N\Nc1nc2ccccc2o1)c1ccccn1 [Example 2, (E)-2-(2-(1-(pyridin-2-yl)ethylidene)hydrazinyl)benzo[d]oxazole]	selectively killed	–	–	–
C/C(=N\NC(=S)N1CCC1)c1ccccn1 [ZMC1]	–	15.8 ± 2.5 nM	neither cell type showed an increase	time dependent increase
C/C(=N\Nc1nc2ccccc2s1)c1ccccn1 [Example 1, (E)-2-(2-(1-(pyridin-2-yl)ethylidene)hydrazinyl)benzo[d]thiazole]	selectively killed	–	–	–
